In patent publication US12281329B2, “Compositions and methods for immune cell modulation in adoptive immunotherapies” (Fate Therapeutics, Inc., priority 2016, dated 2025):

Test system: T cells
Assay: In vitro T cell culture compound screen, flow cytometry for CCR7+CD62L+ cells
Assay type: cell-based, human
Details: in both viable CD4+ population and viable CD8+ population
Description: In Vitro T Cell Culture. Fresh leukopaks (AllCells, Alameda, CA) were obtained from healthy donors, from which T cells were negatively selected using the EasySep Human T cell Enrichment Kit (Stem Cell Technologies, Vancouver, Canada). The freshly isolated T cells were aliquoted and cryopreserved. On the day the screens were initiated, T cells were thawed and washed into X-Vivo 15 with 5% human AB serum, IL-2, pen/strep, and additional supplements. Cells were dispensed into flat-bottom 384-well plates at 5×10^5 cells/ml with anti-CD3/Anti-CD28 dynabeads (ThermoFisher, Waltham, MA) at a 3:1 bead-to-cell ratio. […]
Flow Cytometry. […] Data acquisition was performed on a BD Fortessa X-20 (BD Biosciences) and data were analyzed using Treestar software (FlowJo, Ashland, OR) and Spotfire (Tibco, Boston, MA).
These cells are characterized by expression of CCR7 and CD62L. Therefore, cells co-expressing both of these identifying markers were evaluated. Within the viable CD4+ population and viable CD8+ population, the percent of cells co-expressing CCR7 and CD62L was determined. […]
The number of events in each of these gates relative to the number of absolute counting beads in each sample was calculated, defining a relative measure of the absolute number of naïve, stem cell memory, or central memory T cells within the CD4+ and/or CD8+ populations. […]

SMILES: Oc1cccc(-c2nc(N3CCOCC3)c3oc4ncccc4c3n2)c1 [PI-103]
- number or ratio of cells co-expressing CCR7 and CD62L: increased
